Earlier results in paper PMC3204214 (Proteins, 2011).

Biological target: melittin (Apis mellifera) (UniProt P01501)
Details: cited from earlier work

apo-calmodulin (from UniProt P0DP23)
Kd: 10 µM
